Chains of the proteins cited; added tags and fusions are not shown. Residues count along the entry.
UniProt P43220, 24-463 limits assumed: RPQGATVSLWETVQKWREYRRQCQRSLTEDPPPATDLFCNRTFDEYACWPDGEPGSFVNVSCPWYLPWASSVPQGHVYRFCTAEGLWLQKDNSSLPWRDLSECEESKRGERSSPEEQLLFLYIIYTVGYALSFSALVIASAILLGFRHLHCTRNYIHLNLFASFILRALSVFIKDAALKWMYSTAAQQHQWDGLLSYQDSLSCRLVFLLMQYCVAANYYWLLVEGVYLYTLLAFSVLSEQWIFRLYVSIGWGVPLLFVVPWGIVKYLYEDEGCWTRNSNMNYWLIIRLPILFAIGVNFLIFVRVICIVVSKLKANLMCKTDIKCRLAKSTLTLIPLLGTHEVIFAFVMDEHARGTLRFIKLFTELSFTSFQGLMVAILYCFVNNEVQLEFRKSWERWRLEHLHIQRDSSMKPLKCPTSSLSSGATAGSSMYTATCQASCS

According to patent publication US20260098037A1, “COMPOUND CONTAINING MULTI-FUSED RING STRUCTURE” (Chia Tai Tianqing Pharmaceutical Group Co., Ltd., priority 2023, published 2026):

Tests used:
GLP1R = GLP1R (Homo sapiens, UniProt P43220); test: In vitro cellular cAMP expression activity assay (CRE-luciferase reporter); settings: read-out: HEK293/CRE-Luc/GLP-1R EC50; HEK293/CRE-Luc/GLP1R cells, 6 h incubation, luciferase luminescence
Procedure: HEK293/CRE-Luc/GLP1R cells (manufacturer: GenScript Biotech Corporation) in a good growth state were taken, washed with PBS, and digested with pancreatin. The digestion was terminated with a complete medium. The cells were collected into a centrifuge tube, adjusted to a cell density of 4×10^5 cells/mL using a DMEM+2% FBS medium, seeded in a 96-well plate (100 μL/well), and incubated at 37° C. for 1 h. After 1 h, the compounds were added using a nanoliter pipettor such that the final concentrations of the compounds were 10 nM-0.0006 nM. The compounds were added in duplicate, and a control was set. After the cells were incubated in a cell incubator for another 6 h, a detection reagent Luciferase (manufacturer: Vazyme Biotech, 50 μL/well) was added. The plate was left to stand at room temperature for 3 min to fully lyse the cells, and the luminescence was detected on a PerkinElmer Envision microplate reader. A dose-response curve was fitted by four-parameter analysis, and the EC50 was calculated.

[1] = In vitro stability assay in liver microsome (HLM); settings: liver microsome 0.5 mg/mL, NADPH+MgCl2, PBS pH 7.4, 1 h
Procedure: (§1) Liver microsome incubation samples were prepared by mixing a PBS buffer (pH 7.4), a liver microsome solution (0.5 mg/mL), a test compound, and an NADPH+MgCl2 solution, and incubated at […] and 300 rpm for 1 h. Zero-hour samples were prepared by mixing a PBS buffer (pH 7.4), a liver microsome solution (0.5 mg/mL), and a test compound. An acetonitrile solution containing an internal standard was added to the samples, and supernatants were prepared by protein precipitation, diluted, and then assayed by LC/MS/MS.

[2] = In vitro stability assay in liver microsome (MLM); settings: liver microsome 0.5 mg/mL, NADPH+MgCl2, PBS pH 7.4, 1 h
Procedure: as §1

[3] = In vivo pharmacokinetic evaluation in mice; settings: ICR mice; for AUC(0-24) / AUC(0-∞): plasma
Procedure: ICR mice of 18-22 g were randomized into 4 groups of 9 mice after 3-5 days of acclimatization. […]
The test animals (ICR mice) were fasted from 12 h pre-dose to 4 h post-dose, and given free access to water throughout the study.
Orbital blood samples of about 0.1 mL were collected at 15 min, 30 min, 1 h, 2 h, 3 h, 4 h, 6 h, 8 h, 10 h, and 24 h post-dose for the intragastric administration, and at 5 min, 10 min, 30 min, 1 h, 2 h, 4 h, 6 h, 8 h, 10 h, and 24 h post-dose for the intravenous administration. The blood sampling was performed at 3-4 time points for each mouse, 3 mice per time point. The collected whole blood was transferred into EDTA-K2-containing centrifuge tubes and stored at 4° C., and, within 1 h, centrifuged at 4° C. at 4000 rpm for 10 min to separate the plasma. All the plasma samples were immediately stored after collection at −20° C. for testing.
30 μL of the plasma sample to be tested and a standard curve sample were pipetted and added with 300 μL of an acetonitrile solution containing an internal standard (20 ng/mL of diazepam). The mixture was shaken to mix well for 5 min, and centrifuged at 13,000 rpm for 10 min. 80 μL of the supernatant was taken and diluted with 80 μL of ultrapure water. After a thorough mixing, 2 μL of the resulting sample was taken for liquid chromatography-mass spectrometry, and the chromatogram was recorded.

[4] = test system: GLP-1R humanized C57BL/6J mice; test: Evaluation of hypoglycemic effect in mice (intraperitoneal glucose challenge); settings: intragastric dose 1 mg/kg, glucose 2 g/kg ip 5 h after administration
Excerpt: GLP-1R humanized C57BL/6J mice of 20-22 g were used in this study after 3 days of acclimatization. All the animals were deprived of food but not water until the end of study. Blood samples were collected from the tail tip of the mice.
The test animals were deprived of food but not water overnight before the study. The next day, blood was collected from all the animals for blood glucose testing, and the animals were randomized into a normal control group, a positive control group, and test compound groups by blood glucose and body weight, with 6 animals in each group. The groups were then given intragastric doses, and 5 h after the administration, an intraperitoneal injection of glucose solution (2 g/kg) was given. The blood glucose concentration was measured at 0.25 h, 0.5 h, 1 h, 2 h, and 3 h after the glucose injection. The blood glucose was recorded throughout the study, and the area under the blood glucose-time curve AUC0-180 min Glu was calculated.

Cc1cc(-n2nc3c(c2-n2ccn(-c4cc5c(cc4F)C4(CC4)C(=O)N5C)c2=O)[C@H](C)N(C(=O)c2cc4cc([C@H]5CCOC(C)(C)C5)ccc4n2[C@@]2(c4noc(=O)[nH]4)C[C@@H]2C)CC3)cc(C)c1F
EC50 (GLP1R): < 0.5 nM | HLM Remaining (T = 60 min) [1]: 87.69% | MLM Remaining (T = 60 min) [2]: 87.72% | Absolute bioavailability F ([3]; ig 3 mg/kg vs iv 0.5 mg/kg): 42.42% | MRT(0-24) ([3]; ig, dose 3 mg/kg): 9.28 h | t½ ([3]; ig, dose 3 mg/kg): 5.40 h | AUC(0-24) ([3]; ig, dose 3 mg/kg): 6215 ng·h/mL | AUC(0-∞) ([3]; ig, dose 3 mg/kg): 6539 ng·h/mL | MRT(0-24) ([3]; iv, dose 0.5 mg/kg): 5.00 h | t½ ([3]; iv, dose 0.5 mg/kg): 5.35 h | AUC(0-24) ([3]; iv, dose 0.5 mg/kg): 2505 ng·h/mL | AUC(0-∞) ([3]; iv, dose 0.5 mg/kg): 2569 ng·h/mL | AUC0-180 min Glu reduction (%) [4]: 80%
